Measurements from US20060258739A1, “Dihydrobenzofuran derivatives and uses therof” (Wyeth, priority 2005, published 2006).

Sequences of proteins named here, by UniProt entry; tags and fusion partners are left off. Residues count along the entry.
UniProt P28335, 33-458: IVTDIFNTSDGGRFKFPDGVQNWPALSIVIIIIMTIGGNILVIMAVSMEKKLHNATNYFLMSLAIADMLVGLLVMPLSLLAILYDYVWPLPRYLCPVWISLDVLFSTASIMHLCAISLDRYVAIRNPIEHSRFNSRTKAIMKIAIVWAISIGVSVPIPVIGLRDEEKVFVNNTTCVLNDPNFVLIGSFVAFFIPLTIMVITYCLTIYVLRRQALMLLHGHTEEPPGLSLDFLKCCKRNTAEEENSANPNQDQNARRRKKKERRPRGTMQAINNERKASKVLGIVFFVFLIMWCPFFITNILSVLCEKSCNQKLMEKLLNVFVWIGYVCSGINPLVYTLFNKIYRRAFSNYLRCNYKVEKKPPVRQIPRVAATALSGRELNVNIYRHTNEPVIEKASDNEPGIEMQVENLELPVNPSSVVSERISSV

Legend:
human 5-HT2C receptor = human 5-HT2C receptor (Homo sapiens, UniProt P28335); details: calcium mobilization, response as % of maximal 5-HT response
[1] = biological target: T1, human 5-hydroxytryptamine-2C (h5-HT2C) receptor (Homo sapiens, UniProt P28335); test: [125I]DOI radioligand binding to membranes of CHO cells expressing the h5-HT2C receptor; details: displacement of [125I]DOI, CHO cell membranes, room temperature 60 min; read-out: Ki (95% confidence interval)
T1 construct: expressed in transfected cells; host or cells: CHO (Chinese Hamster Ovary) cells; membrane preparation

“1-(2,5-dimethoxy-4-iodophenyl)isopropylamine [DOI]” gave an EC50 (human 5-HT2C receptor) of 0.5 nM and a Ki [1] of 6.2 nM.
